Tested on: glioma cell lines U87, U251, SF126, hG008, hG021, GL261, TSG
Details: CCK-8 assay

Q: How did the “order of susceptibility of glioma cell lines to 5-FU” value turn out when `O=c1[nH]cc(F)c(=O)[nH]1` [5-FU, 5-fluorouracil] was run?
A: (favorable) GL261, TSG, hG008, U87 and U251 (unfavorable)

— US20240226175A1, “THERAPEUTIC AGENT USING GENOME-EDITED PLURIPOTENT STEM CELL” (KEIO UNIVERSITY, priority 2020, published 2024)
